scFv variants of Ab-91 (heavy chain) against a SARS-CoV-2 spike peptide

Values reported by Engelhart et al. 2022, doi:10.1038/s41597-022-01779-4 (FLAb copy).

Antigen: PDVDLGDISGINAS, a 14-residue peptide of the SARS-CoV-2 spike HR2 region.

Ab-91 is the parent antibody, in scFv form: VL, then three GGGGS repeats, then VH. The light chain is unchanged in all variants.
VL: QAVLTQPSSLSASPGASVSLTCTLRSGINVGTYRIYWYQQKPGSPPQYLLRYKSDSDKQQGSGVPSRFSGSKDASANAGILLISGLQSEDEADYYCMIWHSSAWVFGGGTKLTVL
VH: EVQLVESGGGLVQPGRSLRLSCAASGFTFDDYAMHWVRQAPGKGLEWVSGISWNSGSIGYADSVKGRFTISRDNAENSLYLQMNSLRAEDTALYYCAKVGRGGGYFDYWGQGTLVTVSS

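The starting antibody came from a phage panning campaign against this peptide. The library (AAYL51) carries one to three amino acid substitutions per variant, with no insertions or deletions. In AlphaSeq, yeast of one mating type display the scFv and yeast of the other type display the target. After mating in shaken culture at 30 °C for 16 h, diploids were selected and their barcode pairs sequenced. Read counts were normalised to the haploid input and turned into Kd by a linear fit to BCL2-family pairs of known affinity, for each replicate. There are three technical replicates.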

Variants are written as CDR1, CDR2 and CDR3 of the heavy chain (limits as in the source). Parent: GFTFDDYAMH, GISWNSGSIGYADSVK, VGRGGGYFDY.
This list gathers variants with a substitution at G104 (VH, numbered from residue 1).
Kd is apparent (estimated from mating counts) and averaged on the log scale over replicates with a signal. Smaller is tighter.
A pair that was not seen in any replicate is written "nd"; this usually means weak binding, but a binder can also be missed.

With GFTFDDYAWH | GISWNSGSIGYADSVK | VGRGGTKFDY the result was 100 µM (3 of 3 replicates; controls 3 of 9). The variant GFTFDDYAMH | GIPWNSGSIGYADHVK | VGRGGAYFDY showed 3.2 µM (1 of 3 replicates; controls 1 of 9). The variant GDTFDDYAMH | GISWNSGSIGYADSVK | VGRGGTYFDY showed nd (0 of 3 replicates; controls 0 of 9). The variant GFTFDDYAMH | GISWNSKSIGYADSVK | VGRGENYFDY gave 5.3 µM (1 of 3 replicates; controls 1 of 9). The variant GFTFDDYAMH | GISWNSGSIGYADSVK | VMRGGNYFDP gave 7.9 µM (1 of 3 replicates; controls 3 of 9). With GFTFFDYAMH | GISWNSGSIGYANSVK | VGRGGIYFDY the result was nd (0 of 3 replicates; controls 0 of 9). The variant GFTFDLYPMH | GISWNSGSIGYADSVK | VGRGGCYFDY showed 210 µM (3 of 3 replicates; controls 5 of 9). The variant GFTFDDYAMH | GISWNSGSIGYADCVK | VGRGGQSFDY showed nd (0 of 3 replicates; controls 3 of 9). The variant GFTFFDYAMH | GISWNSGSIGYSDSVK | VGRGGSYFDY showed nd (0 of 3 replicates; controls 0 of 9).

For GFTFDDYAMH | GISWNVGNIGYADSVK | VGRGGEYFDY, the assay gave 170 µM (2 of 3 replicates; controls 4 of 9). The variant GFTFDDYAMH | GISWNSGPIGYADSVK | VGRGGMYFDY showed 390 µM (1 of 3 replicates; controls 5 of 9). The variant GFTFDDYAMH | GISWNSGSIGFADSLK | VGRGGAYFDY showed 410 nM (1 of 3 replicates; controls 0 of 9). The variant GFTFDDYAMH | GISWNSSSIGYADSVK | VGRGGFRFDY gave 260 µM (1 of 3 replicates; controls 2 of 9). For GFTFDDYAMH | GISWNSGSIGYADSVK | VGRGGAFFHY, the assay gave 52 nM (3 of 3 replicates; controls 1 of 9). The variant GFTFDDYAMH | GWSWNSGSIGYADSVE | VGRGGNYFDY gave 1.9 µM (2 of 3 replicates; controls 0 of 9). The variant GFTADDYAMH | GISWNSGSIGYADSVK | VGRGGMYCDY showed 140 µM (1 of 3 replicates; controls 2 of 9). With GFTFDDYAMH | GISWNSGSILYADSVK | VGRGGLYFDY the result was 18 µM (2 of 3 replicates; controls 7 of 9). The variant GFTFDDYAMH | GISTNSGSIGYADSVK | VWRGGTYFDY gave nd (0 of 3 replicates; controls 0 of 9).

The variant GFTFDDYAMH | GISWNSQSGGYADSVK | VGRGGQYFDY gave nd (0 of 3 replicates; controls 0 of 9). With GFTFDDYAMH | GISWNSGSIGIADSVK | VGRGGCYFDR the result was 29 nM (3 of 3 replicates; controls 1 of 9). The variant GFTFDDYAMH | GISWNSGSLGYADSVK | VGRGGEYNDY gave nd (0 of 3 replicates; controls 0 of 9). The variant GFTFDDYAMH | GISWNSGSIGYLDCVK | VGRGGRYFDY gave nd (0 of 3 replicates; controls 0 of 9). For GFTFDDYAMH | GISWNSGSITYADSVK | VGRGGRYFWY, the assay gave 41 µM (1 of 3 replicates; controls 2 of 9). With GFTFDDYAMH | GISWNSGSINYADSVK | VGRGGKYFDY the result was nd (0 of 3 replicates; controls 0 of 9). For GFTFDDDAMH | GISWNSGSIGYADSVK | VGRGGKRFDY, the assay gave 90 µM (2 of 3 replicates; controls 5 of 9). With GFTFDDYAMH | GISANSGHIGYADSVK | VGRGGFYFDY the result was nd (0 of 3 replicates; controls 3 of 9). The variant GFTFPDYARH | GISWNSGSIGYADSVK | VGRGGMYFDY gave nd (0 of 3 replicates; controls 0 of 9).

The variant GFTFDDYAMH | GISWNSESIGYHDSVK | VGRGGNYFDY gave 37 µM (2 of 3 replicates; controls 2 of 9). For GFTFDDYAMH | GISWNSGSIGYADSVK | VGHGGLYFDY, the assay gave nd (0 of 3 replicates; controls 0 of 9). For GFTFNDYAMH | GISWNSGSYGYADSVK | VGRGGYYFDY, the assay gave 96 nM (3 of 3 replicates; controls 3 of 9). With GFTADDYAEH | GISWNSGSIGYADSVK | VGRGGWYFDY the result was 13 µM (1 of 3 replicates; controls 5 of 9). The variant GFTFDDYAMH | GISWNSGSIFYADSVK | VGRGGYYFDY showed nd (0 of 3 replicates; controls 0 of 9). The variant GFTFDDYAMH | GISWHSGSIGKADSVK | VGRGGAYFDY showed 210 nM (1 of 3 replicates; controls 0 of 9). For GFTFDDYAMH | GISWNSGSIGSYDSVK | VGRGGYYFDY, the assay gave 40 µM (2 of 3 replicates; controls 2 of 9). The variant GFSFDDYAMH | GISWHSGSIGYADSVK | VGRGGWYFDY gave 44 µM (1 of 3 replicates; controls 5 of 9). The variant GFTFDDYAMH | GISWNSGSICYADSMK | VGRGGMYFDY showed 100 µM (1 of 3 replicates; controls 0 of 9).

For GFTFDDYAMH | GISWNSGRIGCADSVK | VGRGGHYFDY, the assay gave 250 µM (2 of 3 replicates; controls 8 of 9). The variant GFTFDDYAMH | GISWNSGSIIGADSVK | VGRGGLYFDY showed 6.2 µM (1 of 3 replicates; controls 3 of 9). The variant GFTFDDYAPH | GISWNSGSIGYADLVK | VGRGGPYFDY showed 36 µM (3 of 3 replicates; controls 5 of 9). For GFTFDDYAMH | GISWNSGSIGYADSVK | VGRGVYYFDY, the assay gave nd (0 of 3 replicates; controls 0 of 9). For IFTFDDYAEH | GISWNSGSIGYADSVK | VGRGGAYFDY, the assay gave nd (0 of 3 replicates; controls 0 of 9). The variant GFTFDDYAMH | GISWNSGSITWADSVK | VGRGGMYFDY showed nd (0 of 3 replicates; controls 0 of 9). The variant GFTFRDYAMH | GISWNSGSIGYADSVK | VGRGGCYFDK showed nd (0 of 3 replicates; controls 1 of 9). The variant GFTLDDYAMH | GISWNSGSIGYADSVK | VGRGGQYFDY showed 3.2 µM (3 of 3 replicates; controls 2 of 9). The variant GFTFDDYAMH | GISWSSGSIGYAISVK | VGRGGTYFDY showed nd (0 of 3 replicates; controls 2 of 9).

With GFTFDDYGMH | GISWNQGSIGYADSVK | VGRGGFYFDY the result was nd (0 of 3 replicates; controls 0 of 9).

Picked from the list: the 5 lowest averages where every replicate gave a value.

CDR-H1	CDR-H2	CDR-H3	Kd (apparent)	seen in	signal with controls
GFTFDDYAMH	GISWNSGSIGIADSVK	VGRGGCYFDR	29 nM	3 of 3	1 of 9
GFTFDDYAMH	GISWNSGSIGYADSVK	VGRGGAFFHY	52 nM	3 of 3	1 of 9
GFTFNDYAMH	GISWNSGSYGYADSVK	VGRGGYYFDY	96 nM	3 of 3	3 of 9
GFTLDDYAMH	GISWNSGSIGYADSVK	VGRGGQYFDY	3.2 µM	3 of 3	2 of 9
GFTFDDYAPH	GISWNSGSIGYADLVK	VGRGGPYFDY	36 µM	3 of 3	5 of 9

As a blank, each scFv also met three strains without target: over library AAYL51, 21% of these pairings were detected, typically at 34 µM and seldom below 1.8 µM. The control count says in how many pairings with the empty strains this scFv gave a signal.